Results reported in patent US9913901B2, “Combination therapy for treating HER2-positive cancers” (Merrimack Pharmaceuticals, Inc., priority 2012, dated 2018).
Entries after “also recorded” stand apart in the source; their conditions may differ.

Tests used:
[1] = system: NCI-N87 xenograft; assay: Gastric tumor xenograft model; type: in vivo, mice
[2] = system: BT-474-M3 cells; assay: Co-localization of labeled MM-302 and trastuzumab by confocal microscopy; type: cell-based, human; settings: co-incubation, 1 μM DIi5-labeled MM-302 and 1 μM 488-fluorophore-labeled trastuzumab
Experimental: Therefore, a co-localization experiment was performed.

[3] = system: BT-474-M3 xenograft; assay: Breast tumor xenograft model; type: in vivo, mice
[4] = system: MCF7 cells expressing HER2; assay: Flow cytometry: MM-302 binding after trastuzumab pre-incubation; type: cell-based; settings: 0, 3 or 10 μg/ml trastuzumab, then 3 μg/ml DIi5 MM-302, 3 hours at 37° C.; DIi5 and doxorubicin MFI
Experimental: Cells were evaluated by flow cytometry for both DIi5 labeled lipid in the liposome (left y-axis as mean fluorescence intensity (MFI)) and doxorubicin encapsulated by the liposome (right y-axis as MFI).
After incubation, cells were washed and then evaluated by flow cytometry for both liposome signal (DIi5) and doxorubicin signal (Dox).

[5] = tumors that grew >20% in volume from baseline

## trastuzumab: therapeutic anti-HER2 antibody that blocks intracellular signaling mediated by HER2
[1]; tumors shrinking >30%
  Responders (%): (22%)
[1]; [5]
  PD (number of tumors): 0
[2]
  binding to the cell membrane (co-localization): both bind to the cell membrane; also recorded: both agents co-localize to the cell membrane
[3]; tumors shrinking >30%
  Responders (%): (10%)
[3]; [5]
  PD (%): (50%)
  PD (number of tumors): 5
[4]
  effect of trastuzumab incubation on subsequent binding of MM-302: did not prevent subsequent binding of MM-302; also recorded: does not prevent subsequent binding of MM-302
